Earlier results in US7902185B2, “Treatment of neurodegenerative diseases using proteasome modulators” (ALS Therapy Development Foundation, Inc., priority 2002, dated 2011).

System: patients with ALS
Conditions: human, in vivo; cited from earlier work

For `Nc1nc2ccc(OC(F)(F)F)cc2s1` [Riluzole], the “survival of ALS patients” value is listed as “appears to extend the life of at least some patients”.
